Patent US10442796B2, “2,3,5-substituted thiophene compound as protein kinase inhibitor” (KOREA INSTITUTE OF SCIENCE AND TECHNOLOGY, priority 2016, dated 2019)

Test system: FLT3-ITD-F691L-D835Y Ba/F3 cells
Assay: In vivo life-span (survival) in mouse AML model
Settings: po; for Median survival: qd
Protocol: Nude mice (5-6 weeks old)(Orient) were purchased and used after a week. Mice were anesthetized following IACUC approved animal protocol. FLT3-ITD F691L-D835Y, luc+ Ba/F3 cell (Established in-house) suspension (in 0.1 mL RPMI1640 (Welgene) of 1.0×10^6 cells) was injected into tail vein intravenously using a 29-G needle, and an tail mark was added to each animal for identification. After 6 days, the luminescence intensity was measured using IVIS (Perkin Elmer) to calculate the ROI intensity.
Each compound solution was prepared freshly just before administration. Compounds were administered orally using a mouse sondae once a day, 0.1 mL per mouse. Mice were humanely euthanized if animals experience 20% body weight loss.

For CC(C)(C)c1cc(NC(=O)Nc2ccc(-c3cn4c(n3)sc3cc(OCCN5CCOCC5)ccc34)cc2)no1 [AC220, Quizartinib, reference compound], the Median survival (15 mpk) was 12, the Median survival (30 mpk) was 13 and the “life-span of the mouse model (in words)” value (qd, 15, 30 mg/kg) was “almost same life span as the vehicle control”.
